In US20260384421A1, “NOVEL COMPOUNDS THAT CAN BE USED AS THERAPEUTIC AGENTS” (published 2026):
Where two headings read alike, the source gives them in different places.

Assays:
[1] = test system: HCT-116 cells; assay: alamarBlue proliferation assay with HCT-116 cells; details: read-out: Activity on HCT-116: IC50, McCoy's 5A medium, 10% FBS
[2] = test system: HPEKp cells; assay: proliferation assay with human epidermal keratinocyte progenitors (HPEKp), selectivity versus MDA-MB-231
[3] = test system: NB-4 cells; assay: alamarBlue proliferation assay with NB-4 cells; details: read-out: Activity on NB-4: IC50, RPMI 1640 medium, 10% FBS
[4] = test system: HEP-G2 cells; assay: alamarBlue proliferation assay with HEP-G2 cells; details: read-out: Activity on HEP-G2: IC50, RPMI 1640 medium, 10% FBS
[5] = test system: LL/2 cells; assay: alamarBlue proliferation assay with LL/2 cells; details: read-out: Activity on LL/2: IC50; LL/2 murine Lewis lung carcinoma cells, DMEM medium, 10% FBS
[6] = test system: TANQUE cells; assay: alamarBlue proliferation assay with TANQUE cells; details: read-out: Activity on TANOUE: IC50, RPMI 1640 medium, 10% FBS
[7] = test system: MDA-MB-231 cells; assay: alamarBlue proliferation assay with MDA-MB-231 cells (glucose-free Leibovitz's L-15 medium)
[8] = test system: A-549 cells; assay: alamarBlue proliferation assay with A-549 cells; details: read-out: Activity on A-549: IC50, DMEM medium, 10% FBS
[9] = test system: BHY cells; assay: alamarBlue proliferation assay with BHY cells; details: read-out: Activity on BHY: IC50, DMEM medium, 10% FBS
[10] = test system: CF21.T cells; assay: alamarBlue proliferation assay with CF21.T cells; details: read-out: Activity on CF21.T: IC50; CF21.T canine cells, DMEM medium, 10% FBS
Source text: (§1) These hyperproliferative processes can be benign or malignant and include hyperplasia, neoplasia, cancer and pre-cancerous lesions, and metastases. The antiproliferative activities of compounds falling under general formula (I) were investigated on human primary epidermal keratinocytes (HPEK) and human, murine and canine cell lines derived from hyperproliferative tissue or different cancer types, including MDA-MB-231, ZR-75-30, HCC-1395, HCC-1937, and T-47D all originating from cancer of the breast, JURKAT, RPMI-8402, LOUCY, TANQUE, REC-1, HL-60, NB-4 all originating from different types of blood cancer including lymphoma and leukemia of T-cells, B-cells and myeloid cells, TT originating from cancer of the neuroendocrine system, HeLa originating from cancer of the cervix, 23132/87, SW-948, and HCT-116 all originating from cancer of the gastrointestinal tract including stomach and colon, BHY originating from cancer of the mucosal epithelium, A-431 originating from cancer of the skin, HEP-G2 originating from cancer of the liver, NCI-H460 and A-549 both originating from cancer of the lung, PANC-1 originating from cancer of the pancreas, U-87 MG originating from cancer of the brain, A-375 and RVH-421 both originating from cancer of melanocytes, SW-1353 originating from cancer of bone-derived chondrocytes, C2C12 a mouse cell line originating from hyperproliferative muscle progenitor cells, LL/2 a mouse cell line originating from cancer of the lung, CF21.T a dog cell line originating from cancer of the connective tissue. To this end, according cells were seeded into 96-well plates (CORNING #3598) suitable for fluorescence assays at following initial cell numbers: 1000 cells per well for HPEK; 3000 cells per well for MDA-MB-231, 8000 cells per well for ZR-75-30, 1500 cells per well for HCC-1395, 1500 cells per well for HCC-1937, 3000 cells per well for T-47D, 1500 cells per well for JURKAT, 5000 cells per well for RPMI-8402, 9000 cells per well for LOUCY, 1500 cells per well for TANQUE, 9000 cells per well for REC-1, 1000 cells per well for HL-60, 1000 cells per well for NB-4, 9000 cells per well for TT, 2000 cells per well for HeLa, 2000 cells per well for 23132/87, 9000 cells per well for SW-948, 700 cells per well for HCT-116, 1500 cells per well for BHY, 700 cells per well for A-431, 1500 cells per well for HEP-G2, 500 cells per well for NCI-H460, 1000 cells per well for A-549, 1500 cells per well for PANC-1, 2500 cells per well for U-87 MG, 700 cells per well for A-375, 1500 cells per well for RVH-421, 2000 cells per well for SW-1353, 500 cells per well for C2C12, 500 cells per well for LL/2, and 3000 cells per well for CF21.T. In a volume of 90 μL per well of culture medium the cells were treated with compounds at indicated final concentrations by adding 10 μL per well of 10× compound working solutions from 1:100 pre-diluted 1000× compound DMSO stock-solutions in H2O (Water For Injection, WFI, Fisher Scientific, Gibco™ #A12873) or with the empty carrier DMSO (AppliChem, #A3672) at 0.1% v/v as control yielding a final volume of 100 μL per well. At day 5 after starting the treatments the cells were subjected to the alamarBlue® Proliferation Assay (Bio-Rad Serotec GmbH, BUF012B) according to the protocol of the manufacturer. The readout was taken with a multi-well plate-reader (Tecan Spark®) in the fluorescence mode with applying a filter for excitation at 560 nm (band width 10 nm) and for emission at 590 nm (band width 10 nm). Treatment for maximum proliferation inhibition with the commercial cytotoxic compound (S)-(+)-camptothecin (Fluorochem #M01564) at a concentration of 10 μM was included on each plate for assay quality control. Some of the test compounds of the present invention may have been obtained and applied as their salt forms.
(§2) The assays were performed in duplicate or more replicates of independent single experiments each containing a three- to six-fold replicate for every condition. […]

[11] = test system: A-375 cells; assay: alamarBlue proliferation assay with A-375 cells; details: read-out: Activity on A-375: IC50, DMEM medium, 10% FBS
Source text: as §1, §2

[12] = test system: C2C12 cells; assay: alamarBlue proliferation assay with C2C12 cells; details: read-out: Activity on C2C12: IC50; C2C12 murine myoblast cells, RPMI 1640 medium, 10% FBS
Source text: as §1, §2

[13] = test system: SW-1353 cells; assay: alamarBlue proliferation assay with SW-1353 cells (glucose-free L-15 medium); details: read-out: Activity on SW-1353: IC50, Leibovitz's L-15 medium, 10% FBS, 0% CO2
[14] = test system: A-431 cells; assay: alamarBlue proliferation assay with A-431 cells; details: read-out: Activity on A-431: IC50, DMEM medium, 10% FBS
[15] = test system: NCI-H460 cells; assay: alamarBlue proliferation assay with NCI-H460 cells; details: read-out: Activity on NCI-H460: IC50, RPMI 1640 medium, 10% FBS
[16] = test system: U-87 MG cells; assay: alamarBlue proliferation assay with U-87 MG cells; details: read-out: Activity on U-87MG: IC50, EMEM medium, 10% FBS
Source text: as §1, §2

[17] = read-out: Activity (HPEK), HPEK cells (HPEKp), antiproliferative activity, class by IC50
[18] = read-out: Activity (MDA), MDA-MB-231 cells, antiproliferative activity, class by IC50
[19] = read-out: Activity on MDA-MB-231 (IC50), glucose-free Leibovitz's L-15, 10% FBS, day 5, alamarBlue
[20] = read-out: Activity (HPEK): antiproliferative activity on HPEK cells, IC50 category, HPEK cells cultivated in CnT-Prime medium
[21] = read-out: Activity (MDA): antiproliferative activity on MDA-MB-231 cells, IC50 category, MDA-MB-231 cells cultivated in glucose-free Leibovitz's L-15 medium

Row | IC50 [1] | IC50 [2, 17] | IC50 [4] | IC50 [7, 18] | IC50 [7, 19] | IC50 [8] | IC50 [11] | IC50 [2, 20] | IC50 [13] | IC50 [7, 21] | IC50 [14] | IC50 [15] | IC50 [16] | Compound | IC50 [3] | IC50 [5] | IC50 [6] | IC50 [9] | IC50 [10] | IC50 [12]
1 | ≤ 200 nM | < 10 µM | ≤ 200 nM | < 1000 nM | ≤ 200 nM | ≤ 200 nM |  |  |  |  |  |  |  | COC1CCC(c2ccc(Oc3ccc(C(=O)N4CCN(Cc5ccc(Cl)nc5)CC4)cc3)c(CO)c2)CC1 (centres unmarked) | ≤ 200 nM | ≤ 200 nM | ≤ 200 nM | ≤ 200 nM | ≤ 1000 nM | 
2 | ≤ 200 nM |  |  |  | ≤ 200 nM | ≤ 200 nM | ≤ 200 nM |  |  |  |  |  |  | O=Cc1cc(C2CCC3(CC2)SCCS3)ccc1Oc1ccc(C(=O)N2CCN(Cc3ccc(Cl)cc3)CC2)cc1 | ≤ 200 nM | ≤ 1000 nM | ≤ 200 nM | ≤ 200 nM | ≤ 1000 nM | 
3 | ≤ 200 nM |  |  |  | ≤ 200 nM | ≤ 200 nM | ≤ 200 nM | > 10 µM | ≤ 200 nM | < 1000 nM | ≤ 200 nM |  |  | O=C(c1ccc(Oc2ccc(C3CCC4(CC3)OCCO4)cc2CO)cc1)N1CCN(Cc2ccc(OC(F)(F)F)cc2)CC1 | ≤ 200 nM | ≤ 200 nM | ≤ 200 nM | ≤ 200 nM |  | ≤ 1 µM
4 |  |  |  |  | ≤ 200 nM |  |  | < 5 µM |  | < 1000 nM |  |  |  | O=Cc1cc(C2CCC3(CC2)SCCS3)ccc1Oc1ccc(C(=O)N2CCN(Cc3ccccc3)CC2)cc1 |  |  |  |  |  | ≤ 20 µM
5 |  |  |  |  | ≤ 200 nM |  |  |  |  |  |  | ≤ 20 µM |  | CC(=O)Oc1ccc(CN2CCN(C(=O)c3ccc(Oc4ccc(C5CCC6(CC5)OCCO6)cc4C=O)cc3)CC2)cc1 |  |  |  |  |  | ≤ 5 µM
6 | ≤ 200 nM | < 5 µM | ≤ 200 nM | < 1000 nM | ≤ 200 nM | ≤ 200 nM | ≤ 200 nM |  |  |  | ≤ 200 nM |  |  | COC1CCC(c2ccc(Oc3ccc(C(=O)N4CCN(Cc5ccc(S(F)(F)(F)(F)F)cc5)CC4)nc3)c(CO)c2)CC1 (centres unmarked) | ≤ 200 nM | ≤ 200 nM | ≤ 200 nM | ≤ 200 nM | ≤ 200 nM | 
7 | ≤ 200 nM | < 10 µM | ≤ 200 nM | < 1000 nM | ≤ 200 nM | ≤ 200 nM |  |  |  |  |  |  |  | COC1CCC(c2ccc(Oc3ccc(C(=O)N4CCN(Cc5cnc6ccccc6c5)CC4)cc3)c(CO)c2)CC1 (centres unmarked) | ≤ 200 nM | ≤ 200 nM | ≤ 200 nM | ≤ 200 nM | ≤ 1000 nM | 
8 | ≤ 200 nM | < 5 µM | ≤ 200 nM | < 1000 nM | ≤ 200 nM | ≤ 200 nM |  |  |  |  |  |  |  | COC1CCC(c2ccc(Oc3ccc(C(=O)N4CCN(Cc5ccc6ccccc6c5)CC4)cc3)c(CO)c2)CC1 (centres unmarked) | ≤ 200 nM | ≤ 200 nM | ≤ 200 nM | ≤ 200 nM | ≤ 200 nM | 
9 |  |  |  |  | ≤ 200 nM | ≤ 5000 nM |  | > 10 µM | ≤ 1000 nM | < 1000 nM |  |  |  | O=C(c1ccc(Oc2ccc(C3CCC4(CC3)OCCO4)cc2CO)cc1)N1CCCN(Cc2ccccc2)CC1 |  |  |  |  |  | ≤ 20 µM
10 |  |  |  |  | ≤ 200 nM |  |  | < 10 µM |  | < 1000 nM |  |  |  | O=C(c1ccc(Oc2ccc(C3CCC4(CC3)OCCO4)cc2CO)cc1)N1CCN(Cc2cc3ccccc3[nH]2)CC1 |  |  |  |  |  | ≤ 1 µM
11 |  |  |  |  | ≤ 1000 nM | ≤ 5000 nM |  | < 5 µM | ≤ 1000 nM | < 1000 nM |  | ≤ 5 µM | ≤ 20 µM | COc1ccccc1CN1CCN(C(=O)c2ccc(Oc3ccc(C4CCC5(CC4)OCCO5)cc3CO)cc2)CC1 |  |  |  |  |  | 
12 |  |  |  |  | ≤ 200 nM |  |  | < 5 µM |  | < 1000 nM |  |  |  | O=Cc1cc(C2CCC3(CC2)OCCO3)ccc1Oc1ccc(C(=O)N2CCCN(Cc3ccc(Cl)cc3)CC2)cc1 |  |  |  |  |  | ≤ 5 µM
13 | ≤ 200 nM | < 5 µM |  | < 1000 nM | ≤ 200 nM | ≤ 200 nM | ≤ 200 nM |  |  |  | ≤ 200 nM |  |  | COc1ccc(CN2CCN(C(=O)c3ccc(Oc4ccc(C5CCC6(CC5)SCCS6)cc4CO)cc3)CC2)cc1 | ≤ 200 nM | ≤ 1000 nM | ≤ 200 nM | ≤ 200 nM | ≤ 5000 nM | 
14 |  |  |  |  | ≤ 200 nM |  |  | > 10 µM |  | < 1000 nM |  |  |  | NS(=O)(=O)c1ccc(CN2CCN(C(=O)c3ccc(Oc4ccc(C5CCC6(CC5)OCCO6)cc4CO)cc3)CC2)cc1 |  |  |  |  |  | ≤ 5 µM
15 |  |  |  |  | ≤ 200 nM |  |  |  |  |  |  |  |  | O=Cc1cc(C2CCC3(CC2)OCCO3)ccc1Oc1ccc(C(=O)N2CCN(Cc3ccc(Cl)cn3)CC2)cc1 |  |  |  |  |  | ≤ 5 µM
16 |  |  |  |  | ≤ 1000 nM |  |  |  |  |  |  |  |  | O=Cc1cc(C2CCC3(CC2)OCCO3)ccc1Oc1ccc(C(=O)N2CCN(Cc3ccc(C(F)(F)F)cn3)CC2)cc1 |  |  |  |  |  | ≤ 5 µM
17 |  |  |  |  | ≤ 200 nM |  |  | < 5 µM |  | < 1000 nM |  |  |  | O=Cc1cc(C2CCC3(CCCCO3)CC2)ccc1Oc1ccc(C(=O)N2CCN(Cc3ccccc3)CC2)cc1 (centres unmarked) |  |  |  |  |  | ≤ 5 µM
18 |  |  |  |  | ≤ 200 nM |  |  |  |  |  |  |  |  | CN(C)S(=O)(=O)c1ccc(CN2CCN(C(=O)c3ccc(Oc4ccc(C5CCC6(CC5)OCCO6)cc4C=O)cc3)CC2)cc1 |  |  |  |  |  | ≤ 0.2 µM
